Reference: paper PMC8418994 (Structure (London, England : 1993), 2021)

The chains behind the UniProt entries cited, without tags or fusion partners. Residues count along the entry.
UniProt P37231, 231-505: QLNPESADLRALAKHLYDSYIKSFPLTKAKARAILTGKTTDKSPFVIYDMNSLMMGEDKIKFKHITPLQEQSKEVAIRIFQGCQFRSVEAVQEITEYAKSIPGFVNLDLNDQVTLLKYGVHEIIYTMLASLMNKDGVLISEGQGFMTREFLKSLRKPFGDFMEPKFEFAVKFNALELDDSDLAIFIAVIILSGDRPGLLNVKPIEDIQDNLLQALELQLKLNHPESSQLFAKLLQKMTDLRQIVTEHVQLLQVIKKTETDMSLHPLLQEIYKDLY

Experiments:
[1] = target: T1, PPARγ LBD (Homo sapiens, UniProt P37231); assay: Temperature-dependent isothermal titration calorimetry; format: binding; conditions: ITC at 10, 18, 25, 30, 37°C; linear ΔH vs. temperature; wild-type PPARγ LBD
[2] = target: T1, PPARγ LBD; assay: Surface plasmon resonance; format: binding; conditions: two-step kinetic model fit

CN(CCOc1ccc(C[C@H](Nc2ccccc2C(=O)c2ccccc2)C(=O)O)cc1)c1ccccn1 [GW1929]
heat capacity (ΔCp) of binding [1]: −0.55 kcal mol^−1 K^−1 | Ka2 association rate ([2]; conformational change step): slow | Ka1 association rate ([2]; initial binding step): fast
